By UniProt entry, the sequences of proteins in these tests, tags left out. Where a name states a change or a piece, a line headed by the entry shows the natural chain unless it says otherwise.
UniProt P49146, whole entry: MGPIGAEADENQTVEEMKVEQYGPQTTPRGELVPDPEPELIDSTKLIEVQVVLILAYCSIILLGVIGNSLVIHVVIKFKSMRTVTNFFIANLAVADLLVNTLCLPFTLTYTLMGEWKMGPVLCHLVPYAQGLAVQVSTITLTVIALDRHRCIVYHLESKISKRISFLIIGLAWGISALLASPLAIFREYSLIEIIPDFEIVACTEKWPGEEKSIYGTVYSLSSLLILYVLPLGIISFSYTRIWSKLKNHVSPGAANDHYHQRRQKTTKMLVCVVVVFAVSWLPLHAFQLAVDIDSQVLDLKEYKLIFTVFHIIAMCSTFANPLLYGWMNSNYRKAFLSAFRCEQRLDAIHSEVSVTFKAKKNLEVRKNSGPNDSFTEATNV
UniProt P50391: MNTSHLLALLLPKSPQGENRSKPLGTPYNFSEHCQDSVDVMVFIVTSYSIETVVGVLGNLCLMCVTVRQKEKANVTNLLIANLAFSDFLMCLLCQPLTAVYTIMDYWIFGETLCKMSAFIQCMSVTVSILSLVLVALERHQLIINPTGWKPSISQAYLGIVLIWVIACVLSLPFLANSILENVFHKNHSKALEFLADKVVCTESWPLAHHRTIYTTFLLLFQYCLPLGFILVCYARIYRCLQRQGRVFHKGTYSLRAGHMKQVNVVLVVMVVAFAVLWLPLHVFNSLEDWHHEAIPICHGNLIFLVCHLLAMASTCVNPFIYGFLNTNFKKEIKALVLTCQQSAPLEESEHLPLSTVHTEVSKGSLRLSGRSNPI
UniProt P25929, whole entry: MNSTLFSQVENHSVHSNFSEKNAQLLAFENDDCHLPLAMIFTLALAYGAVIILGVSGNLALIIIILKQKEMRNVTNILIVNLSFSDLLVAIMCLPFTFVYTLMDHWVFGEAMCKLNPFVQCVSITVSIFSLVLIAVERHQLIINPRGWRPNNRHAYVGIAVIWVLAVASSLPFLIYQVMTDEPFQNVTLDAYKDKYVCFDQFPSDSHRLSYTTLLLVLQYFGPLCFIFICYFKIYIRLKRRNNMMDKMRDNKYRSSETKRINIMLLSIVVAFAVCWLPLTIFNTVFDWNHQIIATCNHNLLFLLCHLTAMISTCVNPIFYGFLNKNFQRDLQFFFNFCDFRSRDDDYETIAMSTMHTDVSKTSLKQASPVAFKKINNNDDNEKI

According to patent publication US7410949B2, “Neuropeptide-2 receptor (Y-2R) agonists and uses thereof” (Hoffmann-La Roche Inc., priority 2005, dated 2008):

Tests used:
Assay type in all cases: cell-based
hNPY2R [1] = biological target: T1, hNPY2R (Homo sapiens, UniProt P49146); assay: cAMP Agonist Assay in HEK293/hNPY2R cells; set-up: expressed in transfected cells; host or cells: HEK293/hNPY2R (grown under G418 selection); conditions: read-out: Y2R IC50(nM) cAMP, Forskolin 5 μM
Procedure: The flask was gently tapped and the cell suspension was pooled. […] The suspension was pooled and counted.
The plates were incubated at 37° C. overnight.
The media and reagents were allowed to come to room temperature.
The cell medium was tapped off with a gentle inversion of the cell plate on a paper towel. 50 μL of stimulation medium was placed per well (each concentration done in four replicates). The plates were incubated at room temperature for 30 min, and the cells were checked under a microscope for toxicity.
20 μL of the lysate was transferred from stimulation plates into the pre-coated antibody plates (384-well) from the Tropix kit. […] The plates were incubated at room temperature while shaking for 1 hour. […] The plates were tapped to dry. […] Signal for 1 sec/well in a Luminometer. (VICTOR-V) was measured.

Y4R = Y4R (Homo sapiens, UniProt P50391); assay: FLIPR assay, Y4R; conditions: read-out: Y4R EC50(nM) FLIPR
Procedure: (§1) Loading Buffer (Calcium-3 Assay Kit, Molecular Devices) was prepared by dissolving the contents of one vial (Express Kit) into 1000 ml Hank's Balanced Salt Solution containing 20 mM HEPES and 5 mM probenecid.
(§2) During the incubation, test compounds were prepared at 3.5× the desired concentration in HBSS (20 mM HEPES)/0.05% BSA/1% DMSO and transferred to a 384 well plate for use on FLIPR.
(§3) After incubation, both the cell and compound plates were brought to the FLIPR and 20 μL of the diluted compounds were transferred to the cell plates by the FLIPR. During the assay, fluorescence readings were taken simultaneously from all 384 wells of the cell plate every 1.5 seconds. Five readings were taken to establish a stable baseline, and then 20 μL of sample was rapidly (30 μL/sec) and simultaneously added to each well of the cell plate. The fluorescence was continuously monitored before, during and after sample addition for a total elapsed time of 100 seconds. Responses (increase in peak fluorescence) in each well following addition was determined. The initial fluorescence reading from each well, prior to ligand stimulation, was used as a zero baseline value for the data from that well. The responses are expressed as % of maximal response of the positive control.

hNPY2R [2] = biological target: T1, hNPY2R; assay: CaFlux Assay (FLIPR), Y2R; set-up: expressed in transfected cells; host or cells: HEK-293 cells stably expressing the G protein chimera Gaqi9; conditions: read-out: Y2R EC50(nM) FLIPR; Hek-293 cells with Gaqi9 and human NPY2 receptor
Procedure: Hek-293 cells were stably transfected with the G protein chimera Gaqi9 and the hygromycin-B resistance gene were further transfected with the human NPY2 receptor and G418 antibiotic selection. Following selection in both hygromycin-B and G418, individual clones were assayed for their response to PYY. The transfected cells were cultured in DMEM medium supplemented with 10% fetal bovine serum, 50 μg/ml hygromycin-B 2 mM glutamine, 100 U/ml penicillin, 100 μg/ml streptomycin and 250 μg/ml G418. Cells are harvested with trypsin-EDTA and counted using ViaCount reagent. The cell suspension volume is adjusted to 4.8×10^5 cells/ml with complete growth media. Aliquots of 25 μL are dispensed into 384 well Poly-D Lysine coated black/clear microplates (Falcon) and the microplates were placed in a 37° C. CO2 incubator overnight.
as §1, §2, §3

Y1R = Y1R (Homo sapiens, UniProt P25929); assay: FLIPR assay, Y1R; conditions: read-out: Y1R EC50(nM) FLIPR
Procedure: as §1, §2, §3

| Substance | IC50 (hNPY2R [1]) | EC50 (Y4R) | EC50 (hNPY2R [2]) | EC50 (Y1R) |
| --- | --- | --- | --- | --- |
| Ac-Ile-Lys-Pqa-Arg-His-Tyr-Leu-Asn-Leu-Val-Thr-Arg-Gln-Arg-Tyr-NH2 [Example 6] | 0.026 nM | > 5000 nM | 0.58 nM | – |
| Ac-Ile-Nle-Pqa-(3,4,5 Trifluoro Phe)-His-Tyr-Leu-Asn-Leu-Val-Thr-Arg-Gln-Arg-Tyr-NH2 [Example 64] | – | > 5000 nM | 46 nM | > 5000 nM |
| Ac-Ile-Nle-Pqa-Arg-(3-Pal)-Tyr-Leu-Asn-Leu-Val-Thr-Arg-Gln-Arg-Tyr-NH2 [Example 62] | – | > 5000 nM | 5.6 nM | – |
| Ac-Ile-Nle-Pqa-Arg-(4-MeOApc)-Tyr-Leu-Asn-Leu-Val-Thr-Arg-Gln-Arg-Tyr-NH2 [Example 61] | 7.8 nM | > 5000 nM | – | > 5000 nM |
| Ac-Ile-Nle-Pqa-Arg-(4-Pal)-Tyr-Leu-Asn-Leu-Val-Thr-Arg-Gln-Arg-Tyr-NH2 [Example 63] | 0.099 nM | > 5000 nM | – | > 5000 nM |
| Ac-Ile-Nle-Pqa-Arg-His-(1)Nal-Leu-Asn-Leu-Val-Thr-Arg-Gln-Arg-Tyr-NH2 [Example 57] | – | > 5000 nM | 13 nM | – |
| Ac-Ile-Nle-Pqa-Arg-His-Tic-Leu-Asn-Leu-Val-Thr-Arg-Gln-Arg-Tyr-NH2 [Example 54] | 45 nM | > 5000 nM | – | > 5000 nM |
| Ac-Ile-Nle-Pqa-Arg-His-Tyr-Leu-Asn-Leu-Val-Thr-Arg-Gln-Arg-(D)Tyr-NH2 [Example 48] | 2.2 nM | > 5000 nM | 107 nM | – |
| Ac-Ile-Nle-Pqa-Arg-His-Tyr-Leu-Asn-Leu-Val-Thr-Arg-Gln-Arg-Tyr-NH2 [Example 44] | 0.338 nM | > 5000 nM | 6.1 nM | 760 nM |
| H-(D) Ile-Lys-Pqa-Arg-His-Tyr-Leu-Asn-Leu-Val-Thr-Arg-Gln-Arg-Tyr-NH2 [Example 30] | 0.099 nM | > 5000 nM | 0.22 nM | > 5000 nM |
| H-Ala-Lys-Pqa-Arg-His-Tyr-Leu-Asn-Leu-Val-Thr-Arg-Gln-Arg-Tyr-NH2 [Example 18] | – | > 5000 nM | 0.62 nM | > 5000 nM |
| H-Ile-(D)Lys-Pqa-Arg-His-Tyr-Leu-Asn-Leu-Val-Thr-Arg-Gln-Arg-Tyr-NH2 [Example 29] | 0.078 nM | > 5000 nM | 0.43 nM | > 5000 nM |
| H-Ile-Ala-Pqa-Arg-His-Tyr-Leu-Asn-Leu-Val-Thr-Arg-Gln-Arg-Tyr-NH2 [Example 16] | 0.079 nM | > 5000 nM | – | 1000 nM |
| H-Ile-Lys-Pqa-(D)Arg-His-Tyr-Leu-Asn-Leu-Val-Thr-Arg-Gln-Arg-Tyr-NH2 [Example 28] | 0.201 nM | > 5000 nM | 5.2 nM | 1100 nM |
| H-Ile-Lys-Pqa-(NMe)Arg-His-Tyr-Leu-Asn-Leu-Val-Thr-Arg-Gln-Arg-Tyr-NH2 [Example 40] | 0.218 nM | > 5000 nM | 4.4 nM | 1600 nM |
| H-Ile-Lys-Pqa-Ala-His-Tyr-Leu-Asn-Leu-Val-Thr-Arg-Gln-Arg-Tyr-NH2 [Example 15] | – | > 5000 nM | 25 nM | 3400 nM |
| H-Ile-Lys-Pqa-Arg-(D)His-Tyr-Leu-Asn-Leu-Val-Thr-Arg-Gln-Arg-Tyr-NH2 [Example 27] | 3.18 nM | > 5000 nM | – | – |
| H-Ile-Lys-Pqa-Arg-Ala-Tyr-Leu-Asn-Leu-Val-Thr-Arg-Gln-Arg-Tyr-NH2 [Example 14] | 0.062 nM | > 5000 nM | – | > 5000 nM |
| H-Ile-Lys-Pqa-Arg-His-(D)Tyr-Leu-Asn-Leu-Val-Thr-Arg-Gln-Arg-Tyr-NH2 [Example 26] | 0.26 nM | > 5000 nM | 2.98 nM | – |

| Substance | IC50 (hNPY2R [1]) | EC50 (Y4R) | EC50 (hNPY2R [2]) | EC50 (Y1R) |
| --- | --- | --- | --- | --- |
| H-Ile-Lys-Pqa-Arg-His-(NMe)Tyr-Leu-Asn-Leu-Val-Thr-Arg-Gln-Arg-Tyr-NH2 [Example 38] | 11.7 nM | > 5000 nM | 1.2 nM | > 5000 nM |
| H-Ile-Lys-Pqa-Arg-His-Tyr-(D)Leu-Asn-Leu-Val-Thr-Arg-Gln-Arg-Tyr-NH2 [Example 25] | 0.37 nM | > 5000 nM | 5.26 nM | 3800 nM |
| H-Ile-Lys-Pqa-Arg-His-Tyr-Leu-(D))Asn-Leu-Val-Thr-Arg-Gln-Arg-Tyr-NH2 [Example 24] | 0.92 nM | > 5000 nM | 48 nM | 3800 nM |
| H-Ile-Lys-Pqa-Arg-His-Tyr-Leu-Asn-(D)Leu-Val-Thr-Arg-Gln-Arg-Tyr-NH2 [Example 23] | 22 nM | > 5000 nM | 66 nM | > 5000 nM |
| H-Ile-Lys-Pqa-Arg-His-Tyr-Leu-Asn-(NMe)Leu-Val-Thr-Arg-Gln-Arg-Tyr-NH2 [Example 36] | 12 nM | > 5000 nM | 103 nM | > 5000 nM |
| H-Ile-Lys-Pqa-Arg-His-Tyr-Leu-Asn-Ala-Val-Thr-Arg-Gln-Arg-Tyr-NH2 [Example 10] | 0.25 nM | > 5000 nM | – | > 5000 nM |
| H-Ile-Lys-Pqa-Arg-His-Tyr-Leu-Asn-Leu-(D)Val-Thr-Arg-Gln-Arg-Tyr-NH2 [Example 22] | 21 nM | > 5000 nM | 322 nM | > 5000 nM |
| H-Ile-Lys-Pqa-Arg-His-Tyr-Leu-Asn-Leu-(NMe)Val-Thr-Arg-Gln-Arg-Tyr-NH2 [Example 35] | 42 nM | > 5000 nM | 44.4 nM | > 5000 nM |
| H-Ile-Lys-Pqa-Arg-His-Tyr-Leu-Asn-Leu-Ala-Thr-Arg-Gln-Arg-Tyr-NH2 [Example 9] | 0.21 nM | > 5000 nM | – | > 5000 nM |
| H-Ile-Lys-Pqa-Arg-His-Tyr-Leu-Asn-Leu-Val-(NMe)Thr-Arg-Gln-Arg-Tyr-NH2 [Example 34] | 89 nM | > 5000 nM | – | > 5000 nM |
| H-Ile-Lys-Pqa-Arg-His-Tyr-Leu-Asn-Leu-Val-Thr-(D)Arg-Gln-Arg-Tyr-NH2 [Example 21] | 65 nM | > 5000 nM | 324 nM | > 5000 nM |
| H-Ile-Lys-Pqa-Arg-His-Tyr-Leu-Asn-Leu-Val-Thr-Arg-Ala-Arg-Tyr-NH2 [Example 7] | 29 nM | > 5000 nM | – | > 5000 nM |
| H-Ile-Lys-Pqa-Arg-His-Tyr-Leu-Asn-Leu-Val-Thr-Arg-Gln-(D)Arg-Tyr-NH2 [Example 20] | 25 nM | > 5000 nM | 110 nM | > 5000 nM |
| H-Ile-Lys-Pqa-Arg-His-Tyr-Leu-Asn-Leu-Val-Thr-Arg-Gln-Arg-(D)Tyr-NH2 [Example 19] | 1.09 nM | > 5000 nM | 3.5 nM | 3300 nM |
| H-Ile-Lys-Pqa-Arg-His-Tyr-Leu-Asn-Leu-Val-Thr-Arg-Gln-Arg-(NMe)Tyr-NH2 [Example 31] | 2.6 nM | > 5000 nM | 11.8 nM | > 5000 nM |
| H-Ile-Lys-Pqa-Arg-His-Tyr-Leu-Asn-Leu-Val-Thr-Arg-Gln-Arg-Tyr-NH2 [Example 5] | 0.032 nM | > 5000 nM | 3.2 nM | – |
| H-Ile-NMeLys-Pqa-Arg-His-Tyr-Leu-Asn-Leu-Val-Thr-Arg-Gln-Arg-Tyr-NH2 [Example 41] | 0.19 nM | > 5000 nM | – | – |
| H-Ile-Nle-Pqa-Arg-His-Tyr-Leu-Asn-Leu-Val-Thr-Arg-Gln-Arg-Tyr-NH2 [Example 43] | 0.096 nM | > 5000 nM | – | 430 nM |
| H-NMeIle-Lys-Pqa-Arg-His-Tyr-Leu-Asn-Leu-Val-Thr-Arg-Gln-Arg-Tyr-NH2 [Example 42] | 0.12 nM | > 5000 nM | – | – |
